Tested on: RGC-5 cells
Details: 1 μM for 24 hours, 100 μM BrdU for the final 2 hours; untreated control 69.5%

CN[C@@H]1C[C@H]2O[C@@](C)([C@@H]1OC)n1c3ccccc3c3c4c(c5c6ccccc6n2c5c31)C(=O)NC4 [staurosporine]
cells with BrdU incorporation: 2.2%

From patent US7303915B2, “In vitro-differentiated retinal ganglion cells and method for producing same” (Wisconsin Alumni Research Foundation, priority 2005, dated 2007)
